Laboratory results taken from ChEMBL document CHEMBL1938349 (Bioorg Med Chem, 2012).

Amino acid sequences for entries named in this document (tags omitted).
UniProt P30729, whole entry: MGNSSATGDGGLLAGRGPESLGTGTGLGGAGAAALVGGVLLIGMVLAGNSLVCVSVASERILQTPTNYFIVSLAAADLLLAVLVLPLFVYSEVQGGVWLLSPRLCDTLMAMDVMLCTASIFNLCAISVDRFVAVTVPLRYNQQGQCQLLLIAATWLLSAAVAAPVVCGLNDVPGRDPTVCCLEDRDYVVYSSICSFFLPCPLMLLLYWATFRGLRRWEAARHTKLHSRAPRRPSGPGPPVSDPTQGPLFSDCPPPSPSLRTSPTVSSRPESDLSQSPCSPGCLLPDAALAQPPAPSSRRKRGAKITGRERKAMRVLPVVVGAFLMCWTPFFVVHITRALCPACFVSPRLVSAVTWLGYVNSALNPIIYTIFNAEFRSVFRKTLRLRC
UniProt P35462, whole entry: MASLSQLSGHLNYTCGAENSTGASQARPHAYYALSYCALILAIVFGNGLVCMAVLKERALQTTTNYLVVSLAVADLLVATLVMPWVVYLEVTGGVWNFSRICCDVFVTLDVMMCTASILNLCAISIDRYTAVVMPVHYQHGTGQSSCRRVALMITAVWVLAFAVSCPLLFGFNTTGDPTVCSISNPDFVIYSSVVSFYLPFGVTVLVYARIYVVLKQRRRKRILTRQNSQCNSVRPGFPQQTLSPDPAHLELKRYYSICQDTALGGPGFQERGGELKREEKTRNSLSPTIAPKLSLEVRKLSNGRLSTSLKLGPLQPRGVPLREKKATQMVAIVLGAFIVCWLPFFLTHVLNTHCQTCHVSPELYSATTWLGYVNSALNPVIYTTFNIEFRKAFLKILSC
UniProt P28223, whole entry: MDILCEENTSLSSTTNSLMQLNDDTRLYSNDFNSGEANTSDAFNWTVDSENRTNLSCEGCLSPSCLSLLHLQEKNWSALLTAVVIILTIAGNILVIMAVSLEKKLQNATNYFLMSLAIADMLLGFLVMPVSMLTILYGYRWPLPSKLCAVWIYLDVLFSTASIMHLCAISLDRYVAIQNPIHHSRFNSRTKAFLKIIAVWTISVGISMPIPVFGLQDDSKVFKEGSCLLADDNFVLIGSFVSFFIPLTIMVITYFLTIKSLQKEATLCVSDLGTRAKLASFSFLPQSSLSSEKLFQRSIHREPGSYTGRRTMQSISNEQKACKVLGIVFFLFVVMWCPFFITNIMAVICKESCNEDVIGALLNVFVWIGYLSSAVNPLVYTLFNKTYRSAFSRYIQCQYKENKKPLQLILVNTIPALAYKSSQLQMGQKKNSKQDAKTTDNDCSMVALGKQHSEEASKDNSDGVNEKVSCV
UniProt P18825, whole entry: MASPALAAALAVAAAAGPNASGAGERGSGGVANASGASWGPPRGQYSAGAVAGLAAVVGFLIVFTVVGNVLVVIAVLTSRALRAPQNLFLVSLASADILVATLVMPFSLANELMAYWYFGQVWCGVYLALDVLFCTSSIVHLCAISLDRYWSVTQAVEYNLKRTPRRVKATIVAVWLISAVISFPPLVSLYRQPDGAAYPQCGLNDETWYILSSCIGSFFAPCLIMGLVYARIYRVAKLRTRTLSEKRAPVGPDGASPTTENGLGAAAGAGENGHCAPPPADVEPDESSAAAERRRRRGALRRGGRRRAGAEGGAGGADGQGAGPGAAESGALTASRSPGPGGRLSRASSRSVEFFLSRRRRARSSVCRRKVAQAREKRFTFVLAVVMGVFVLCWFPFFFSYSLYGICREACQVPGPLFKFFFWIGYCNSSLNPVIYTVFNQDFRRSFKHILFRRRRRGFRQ

Assays:
D(4) dopamine receptor = D(4) dopamine receptor (Rattus norvegicus, UniProt P30729); experiment: Displacement of [3H]N-methylspiperone from rat dopamine D4 receptor by liquid scintillation counting
[1] = molecular target: T1, 5-hydroxytryptamine receptor 2C (Rattus norvegicus, UniProt P08909); experiment: Displacement of [3H]mesulergine from rat 5HT2C receptor by liquid scintillation counting
T1 sequence (P08909 whole entry): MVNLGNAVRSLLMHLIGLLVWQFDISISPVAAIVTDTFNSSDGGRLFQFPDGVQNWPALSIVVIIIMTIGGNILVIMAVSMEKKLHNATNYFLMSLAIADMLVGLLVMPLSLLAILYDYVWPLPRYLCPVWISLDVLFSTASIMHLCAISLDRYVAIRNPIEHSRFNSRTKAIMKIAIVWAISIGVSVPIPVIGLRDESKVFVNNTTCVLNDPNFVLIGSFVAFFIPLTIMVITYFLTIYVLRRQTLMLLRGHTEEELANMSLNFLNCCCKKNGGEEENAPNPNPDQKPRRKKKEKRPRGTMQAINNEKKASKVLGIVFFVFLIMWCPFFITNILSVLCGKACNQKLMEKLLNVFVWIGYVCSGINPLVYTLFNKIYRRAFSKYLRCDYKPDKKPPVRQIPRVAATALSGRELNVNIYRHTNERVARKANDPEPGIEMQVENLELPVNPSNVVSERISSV

D(3) dopamine receptor = D(3) dopamine receptor (Homo sapiens, UniProt P35462); experiment: Displacement of [3H]N-methylspiperone from human dopamine D3 receptor by liquid scintillation counting
[2] = molecular target: 5-hydroxytryptamine receptor 2A (Homo sapiens, UniProt P28223); experiment: Displacement of [3H]DOI from human 5HT2A receptor after 1 hr by liquid scintillation counting
[3] = molecular target: Alpha-2C adrenergic receptor (Homo sapiens, UniProt P18825); experiment: Displacement of [3H]clonidine from human Alpha-2C receptor by liquid scintillation counting

Structure (SMILES)	Ki (D(4) dopamine receptor)	Ki [1]	Ki (D(3) dopamine receptor)	Ki [2]	Ki [3]
O=C(CCCN1CCN(c2ncccn2)CC1)c1ccc(F)cc1	6.5 nM	4.13 µM	–	–	–
OC1(c2ccc(Cl)cc2)CCN(CCCSc2ccc(F)cc2)CC1	248 nM	–	49 nM	72 nM	–
OC1(c2ccc(Cl)cc2)CCN(CCCOc2ccc(F)cc2)CC1	2.4 nM	–	–	–	–
Fc1ccc(OCCCN2CCN(c3ccccn3)CC2)cc1	–	–	–	–	194 nM
